PubChem BioAssay (NCI)
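Results reflect a 48-hour exposure of cells in 96-well plates to compound at five concentrations. The concentration for full growth arrest is given as TGI.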

Legend:
Experiment in all cases: growth of human tumour cells (NCI), 48 h
[1] = test system: T-47D breast
[2] = test system: HL-60(TB) leukemia
[3] = test system: NCI-H226 lung
[4] = test system: SW-620 colon
[5] = test system: HCT-116 colon
[6] = test system: A549 NSCLC
[7] = test system: NCI-H522 lung
[8] = test system: PC-3 prostate
[9] = test system: U251 CNS
[10] = test system: UO-31 renal
[11] = test system: 786-0 renal
[12] = test system: KM12 colon
[13] = test system: SNB-75 CNS
[14] = test system: NCI-H23 lung
[15] = test system: BT-549 breast
[16] = test system: MDA-MB-231 breast
[17] = test system: MCF7 breast
[18] = test system: SK-MEL-28 melanoma
[19] = test system: HCC-2998 colon
[20] = test system: SN12C renal
[21] = test system: HOP-62 NSCLC
[22] = test system: NCI-H322M lung
[23] = test system: LOX IMVI melanoma
[24] = test system: OVCAR-8 ovarian
[25] = test system: MALME-3M melanoma
[26] = test system: SR leukemia
[27] = test system: UACC-62 melanoma
[28] = test system: MOLT-4 leukemia
[29] = test system: OVCAR-4 ovarian
[30] = test system: DU-145 prostate
[31] = test system: TK-10 renal
[32] = test system: SK-MEL-5 melanoma
[33] = test system: SF-539 CNS
[34] = test system: SK-OV-3 ovarian
[35] = test system: OVCAR-3 ovarian
[36] = test system: RXF 393 renal
[37] = test system: MDA-MB-435
[38] = test system: SK-MEL-2 melanoma
[39] = test system: UACC-257 melanoma
[40] = test system: HCT-15 colon
[41] = test system: ACHN renal
[42] = test system: SNB-19 CNS
[43] = test system: CAKI-1 renal
[44] = test system: M14 melanoma
[45] = test system: IGROV1 ovarian
[46] = test system: MDA-N
[47] = test system: OVCAR-5 ovarian
[48] = test system: CCRF-CEM leukemia
[49] = test system: K-562 leukemia
[50] = test system: A498 renal
[51] = test system: HT29 colon
[52] = test system: HS 578T breast
[53] = test system: COLO 205 colon
[54] = test system: NCI/ADR-RES ovarian
[55] = test system: RPMI-8226 leukemia
[56] = test system: HOP-92 NSCLC
[57] = test system: SF-295 CNS
[58] = test system: SF-268 CNS
[59] = test system: EKVX NSCLC
[60] = test system: NCI-H460 lung

CN(C(=O)Cc1ccc(Br)c(Br)c1N)[C@H]1CCCC[C@@H]1N1CCCC1
TGI [1]: 34.3 µM
TGI [2]: 34.6 µM
TGI [3]: 40.8 µM
TGI [4]: 40.2 µM
TGI [5]: 37.1 µM
TGI [6]: 51 µM
TGI [7]: 31.1 µM
TGI [8]: 42.6 µM
TGI [9]: 37.1 µM
TGI [10]: 30.7 µM
TGI [11]: 38.7 µM
TGI [12]: 26.3 µM
TGI [13]: 23.1 µM
TGI [14]: 36.9 µM
TGI [15]: 32 µM
TGI [16]: 29.5 µM
TGI [17]: 30.8 µM
TGI [18]: 28.9 µM
TGI [19]: 29.5 µM
TGI [20]: > 100 µM
TGI [21]: 28.4 µM
TGI [22]: 71.1 µM
TGI [23]: 28.6 µM
TGI [24]: 35.8 µM
TGI [25]: 33.7 µM
TGI [26]: 33 µM
TGI [27]: 31.8 µM
TGI [28]: 30.5 µM
TGI [29]: 46.5 µM
TGI [30]: 37 µM
TGI [31]: 34.8 µM
TGI [32]: 30.8 µM
TGI [33]: 34.9 µM
TGI [34]: 42.6 µM
TGI [35]: 46.3 µM
TGI [36]: 29.5 µM
TGI [37]: 26.1 µM
TGI [38]: 37 µM
TGI [39]: 36 µM
TGI [40]: 73.9 µM
TGI [41]: 42.1 µM
TGI [42]: 55.8 µM
TGI [43]: 26.9 µM
TGI [44]: 28.9 µM
TGI [45]: 29.7 µM
TGI [46]: 40.8 µM
TGI [47]: 39.5 µM
TGI [48]: 25.5 µM
TGI [49]: 33.9 µM
TGI [50]: 30.5 µM
TGI [51]: 49.7 µM
TGI [52]: 64.3 µM
TGI [53]: 26.7 µM
TGI [54]: 37.5 µM
TGI [55]: 32.3 µM
TGI [56]: 32.5 µM
TGI [57]: 35 µM
TGI [58]: > 100 µM
TGI [59]: 53.1 µM
TGI [60]: 30.9 µM
